This is an account of results in ChEMBL document CHEMBL1136572, “Piperazine-based CCR5 antagonists as HIV-1 inhibitors. III: synthesis, antiviral and pharmacokinetic profiles of symmetrical heteroaryl carboxamides” (Bioorg Med Chem Lett, 2003).

Chains of the proteins cited; added tags and fusions are not shown.
UniProt P51681, whole entry: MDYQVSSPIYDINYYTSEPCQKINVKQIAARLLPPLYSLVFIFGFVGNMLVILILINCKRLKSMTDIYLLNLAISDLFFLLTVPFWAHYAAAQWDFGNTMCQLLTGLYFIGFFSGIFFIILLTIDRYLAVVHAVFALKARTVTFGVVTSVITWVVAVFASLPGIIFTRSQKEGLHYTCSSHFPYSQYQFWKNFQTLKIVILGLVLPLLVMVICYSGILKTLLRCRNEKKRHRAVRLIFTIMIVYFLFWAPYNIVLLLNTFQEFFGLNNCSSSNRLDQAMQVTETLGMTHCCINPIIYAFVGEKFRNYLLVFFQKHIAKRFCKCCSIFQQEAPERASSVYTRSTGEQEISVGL

In general, Ki refers to a dissociation constant, usually derived from enzyme kinetics or from competition with a known ligand. A high value points to lower affinity.

In this assay the target is C-C chemokine receptor type 5 (Homo sapiens, UniProt P51681). In words: Ability of compound to inhibit [125I]-labeled RANTES binding to the CCR5 receptor expressed in membrane preparations from CHO cells. The assay is classed as cell-based, Cricetulus griseus.

Molecules are shown by their SMILES.

Consider `Cc1ncnc(C)c1C(=O)N1CCC(C)(N2CCN([C@@H](C)c3ccc(C(F)(F)F)cc3)[C@@H](C)C2)CC1`, for which the Ki worked out at 3 nM.
